Active and inactive are the calls of the source. No cut-off for these calls is given here.

For one assay, the system named is aldose reductase (Rattus norvegicus). Briefly: In vivo inhibition of sorbitol accumulation in the rat following 10 mg/kg p.o. administration. The following applies: at 10 mg/kg.
In general, inhibition refers to the relative decrease from the control value, in per cent. With `O=C(O)Cc1nn(Cc2nc3ccccc3s2)c(=O)c2cc(Cl)c(Cl)cc12`, the inhibition came to 63%.

In turn, `O=C(O)Cc1nn(Cc2nc3cc(Br)ccc3s2)c(=O)c2ccccc12` yielded an inhibition of 87%.

Compound `O=C(O)Cc1nn(Cc2nc3ccc(Br)cc3s2)c(=O)c2ccccc12` gave an inhibition of 55%.

The compound `O=C(O)Cc1nn(Cc2nc3c(Cl)c(Cl)ccc3s2)c(=O)c2ccccc12` came in with an inhibition of 49%.

`CC(c1nc2cc(C(F)(F)F)ccc2s1)n1nc(CC(=O)O)c2ccccc2c1=O` (configuration not stated) showed an inhibition of 36%.

A further assay has the same test system. Briefly: In vivo inhibition of sorbitol accumulation in the rat following 10 mg/kg p.o. administration; Not significant. Particulars: at 10 mg/kg.
Regarding `O=C(O)Cc1nn(Cc2nc3ccccc3s2)c(=O)c2cc([N+](=O)[O-])ccc12`, the inhibition entry is “inactive”.

For `O=C(O)Cc1nn(Cc2nc3ccccc3s2)c(=O)c2ccc(Br)cc12`, the inhibition result was “inactive”.

Source of the values: ChEMBL document CHEMBL1125712 (J Med Chem, 1991).
